Results: US20100311821A1, “Synthetic vector” (priority 2009, published 2010)

Test system: λ-DNA
Assay: DNA melting studies (Example 2)
Format: physicochemical, lambda phage
Details: stoichiometric KWK 64 μM, heating up to 95° C.
Protocol: DNA Melting Studies. DNA melting studies on native DNA and DNA complexes in 10 mM sodium cocadylate buffer were performed on a Carey 100 UV-Vis. DNA absorbance at 260 nm was monitored with temperature, slowly increasing from 50° C. to 95° C. at 1° C./min heating rate. For DNA-KWK, DNA-PP4, DNA-PP8 complexes, weak background absorbances from KWK, PP4 and PP8 were directly subtracted from the measurements, by using the corresponding KWK, PP4 and PP8 in 10 mM sodium cocadylate buffer as reference cells.
The stability of DNA-KWK, DNA-PP4 and DNA-PP8 complexes was investigated by DNA melting studies. Breakage of double-stranded DNA into single strands was monitored by an increase in the DNA absorbance at 260 nm, due to the disruption of hydrogen bonds between base pairs (i.e. hyperchromic effect). For native λ-DNA, Tm, the temperature at which 50% of ds-DNA dissociates, was determined to be 70° C. (FIG. 9, curve a). For melting studies on DNA-KWK, DNA-PP4 and DNA-PP8 complexes, weak background absorbances from the corresponding KWK, PP4, PP8 at 260 nm have been subtracted to achieve accurate DNA absorbance measurements. […] (FIG. 9, curve c). […] A much slower ds-DNA dissociation curve was observed (FIG. 9, curve d).

## lysine-tryptophan-lysine [KWK]
  stabilization of ds-DNA in melting study: only slightly shifted
